What follows are compounds tested against Recombinant heterodimeric HCV NS3/NS4A protease (strain 1a) (Hepatitis C virus genotype 1a, UniProt P27958) (assay: Spectrophotometric assay for HCV protease inhibitory activity). Conditions: Table 1, range.
Type: biochemical

Chains of the proteins cited; added tags and fusions are not shown. Residues count along the entry.
UniProt P27958, 1027-1657: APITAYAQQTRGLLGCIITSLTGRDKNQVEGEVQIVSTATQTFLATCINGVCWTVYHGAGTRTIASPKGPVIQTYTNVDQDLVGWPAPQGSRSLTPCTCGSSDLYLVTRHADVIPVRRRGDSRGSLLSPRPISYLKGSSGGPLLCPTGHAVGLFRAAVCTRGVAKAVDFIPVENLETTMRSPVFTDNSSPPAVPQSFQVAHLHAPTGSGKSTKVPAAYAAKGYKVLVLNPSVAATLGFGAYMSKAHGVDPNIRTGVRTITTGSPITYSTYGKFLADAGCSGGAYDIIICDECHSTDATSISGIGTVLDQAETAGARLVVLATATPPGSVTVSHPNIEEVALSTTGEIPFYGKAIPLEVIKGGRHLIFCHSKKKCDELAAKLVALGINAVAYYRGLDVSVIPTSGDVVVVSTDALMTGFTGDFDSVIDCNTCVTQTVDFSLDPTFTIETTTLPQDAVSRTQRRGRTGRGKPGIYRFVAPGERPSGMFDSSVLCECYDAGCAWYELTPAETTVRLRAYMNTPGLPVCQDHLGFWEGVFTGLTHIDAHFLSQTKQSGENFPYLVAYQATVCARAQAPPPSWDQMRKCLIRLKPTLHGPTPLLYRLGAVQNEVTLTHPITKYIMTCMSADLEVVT
UniProt P27958, 1658-1711: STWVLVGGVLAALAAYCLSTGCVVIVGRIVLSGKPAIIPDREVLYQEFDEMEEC

Row | Structure (SMILES) | Ki [nM]
1 | C=CCNC(=O)C(=O)C(CC1CC1)NC(=O)[C@@H]1[C@@H]2[C@H](CN1C(=O)[C@@H](NC(=O)N[C@H](CN(C)S(=O)(=O)N(C)C)C(C)(C)C)C1Cc3ccccc3C1)C2(C)C (stereo partly shown) [Compound 10068] | ≤ 75
2 | C=CCNC(=O)C(=O)C(CC1CC1)NC(=O)[C@@H]1[C@@H]2[C@H](CN1C(=O)[C@@H](NC(=O)N[C@H](CN(C)S(=O)(=O)N1CCCCC1)C(C)(C)C)C(C)(C)C)C2(C)C (stereo partly shown) [Compound 10069] | ≤ 75
3 | CN(C[C@@H](NC(=O)N[C@H](C(=O)N1C[C@H]2[C@@H]([C@H]1C(=O)NC(CCC(F)(F)F)C(=O)C(N)=O)C2(C)C)C(C)(C)C)C(C)(C)C)S(=O)(=O)N1CCCCC1 (stereo partly shown) [Compound 10070] | ≤ 75
4 | C#CCCC(NC(=O)[C@@H]1[C@@H]2[C@H](CN1C(=O)[C@@H](NC(=O)N[C@H](CN(C)S(=O)(=O)N(C)C)C(C)(C)C)C(C)(C)C)C2(C)C)C(=O)C(=O)NCC (stereo partly shown) [Compound 10071] | ≤ 75
5 | CCNC(=O)C(=O)C(CC1CC1)NC(=O)[C@@H]1[C@@H]2[C@H](CN1C(=O)[C@@H](NC(=O)N[C@H](CN(C)S(=O)(=O)N(C)C)C(C)(C)C)C(C)(C)C)C2(C)C (stereo partly shown) [Compound 10072] | ≤ 75
6 | C=CCNC(=O)C(=O)C(CC1CC1)NC(=O)[C@@H]1[C@@H]2[C@H](CN1C(=O)[C@@H](NC(=O)N[C@H](CN(C)S(=O)(=O)N(C)C)C(C)(C)C)C1CCCCC1)C2(C)C (stereo partly shown) [Compound 10073] | ≤ 75
7 | C=CCNC(=O)C(=O)C(CC1CC1)NC(=O)[C@@H]1[C@@H]2[C@H](CN1C(=O)[C@@H](NC(=O)N[C@H](CN(C)S(=O)(=O)N(C)C(=O)OCc1ccccc1)C(C)(C)C)C1CCCCC1)C2(C)C (stereo partly shown) [Compound 10075] | ≤ 75
8 | C=CCNC(=O)C(=O)C(CC1CCC1)NC(=O)[C@@H]1[C@@H]2[C@H](CN1C(=O)[C@@H](NC(=O)N[C@H](CN(C)S(=O)(=O)N(C)C(=O)OCc1ccccc1)C(C)(C)C)C1CCCCC1)C2(C)C (stereo partly shown) [Compound 10076] | ≤ 75
9 | C#CCCC(NC(=O)[C@@H]1[C@@H]2[C@H](CN1C(=O)[C@@H](NC(=O)N[C@H](CN(C)S(=O)(=O)N(C)C)C(C)(C)C)C1CCCCC1)C2(C)C)C(=O)C(=O)NCC (stereo partly shown) [Compound 10077] | ≤ 75
10 | CCCCC(NC(=O)[C@@H]1[C@@H]2[C@H](CN1C(=O)[C@@H](NC(=O)N[C@H](CN(C)S(=O)(=O)N(C)C)C(C)(C)C)C(C)(C)C)C2(C)C)C(=O)C(=O)NCC (stereo partly shown) [Compound 10078] | ≤ 75
11 | C=CCNC(=O)C(=O)C(CCCC)NC(=O)[C@@H]1[C@@H]2[C@H](CN1C(=O)[C@@H](NC(=O)N[C@H](CN(C)S(=O)(=O)N(C)C)C(C)(C)C)C1CCCCC1)C2(C)C (stereo partly shown) [Compound 10079] | ≤ 75
12 | CN(C[C@@H](NC(=O)N[C@H](C(=O)N1C[C@H]2[C@@H]([C@H]1C(=O)NC(CC1CC1)C(=O)C(N)=O)C2(C)C)C(C)(C)C)C(C)(C)C)S(=O)(=O)N1CCOCC1 (stereo partly shown) [Compound 10080] | ≤ 75
13 | C=CCNC(=O)C(=O)C(CCC)NC(=O)[C@@H]1[C@@H]2[C@H](CN1C(=O)[C@@H](NC(=O)N[C@H](CN(C)S(=O)(=O)N1CCOCC1)C(C)(C)C)C(C)(C)C)C2(C)C (stereo partly shown) [Compound 10081] | ≤ 75
14 | C=CCNC(=O)C(=O)C(CCCC)NC(=O)[C@@H]1[C@@H]2[C@H](CN1C(=O)[C@@H](NC(=O)N[C@H](CN(C)S(=O)(=O)N(C)C(=O)OCc1ccccc1)C(C)(C)C)C(C)(C)C)C2(C)C (stereo partly shown) [Compound 10082] | ≤ 75
15 | C#CCCC(NC(=O)[C@@H]1[C@@H]2[C@H](CN1C(=O)[C@@H](NC(=O)N[C@H](CN(C)S(=O)(=O)N(C)C(=O)OCc1ccccc1)C(C)(C)C)C1CCCCC1)C2(C)C)C(=O)C(=O)NCC=C (stereo partly shown) [Compound 10083] | ≤ 75
16 | CCCCC(NC(=O)[C@@H]1[C@@H]2[C@H](CN1C(=O)[C@@H](NC(=O)N[C@H](CN(C)S(=O)(=O)N(C)C)C(C)(C)C)C1CCCCC1)C2(C)C)C(=O)C(=O)NCC (stereo partly shown) [Compound 10085] | ≤ 75
17 | C=CCNC(=O)C(=O)C(CCC(F)(F)F)NC(=O)[C@@H]1[C@@H]2[C@H](CN1C(=O)[C@@H](NC(=O)N[C@H](CN(C)S(=O)(=O)N(C)C)C(C)(C)C)C1CCCCC1)C2(C)C (stereo partly shown) [Compound 10086] | ≤ 75

Row | Structure (SMILES) | Ki [nM]
18 | C#CCCC(NC(=O)[C@@H]1[C@@H]2[C@H](CN1C(=O)[C@@H](NC(=O)N[C@H](CN(C)S(=O)(=O)N(C)C(=O)OC(C)(C)C)C(C)(C)C)C(C)(C)C)C2(C)C)C(=O)C(=O)NCC=C (stereo partly shown) [Compound 10087] | ≤ 75
19 | CN(C[C@@H](NC(=O)N[C@H](C(=O)N1C[C@H]2[C@@H]([C@H]1C(=O)NC(CC1CCC1)C(=O)C(N)=O)C2(C)C)C(C)(C)C)C(C)(C)C)S(=O)(=O)N(C)C(=O)OC(C)(C)C (stereo partly shown) [Compound 10088] | ≤ 75
20 | C=CCNC(=O)C(=O)C(CC1CC1)NC(=O)[C@@H]1[C@@H]2[C@H](CN1C(=O)[C@@H](NC(=O)N[C@H](CN(C)S(=O)(=O)N(C)C(=O)OC(C)(C)C)C(C)(C)C)C(C)(C)C)C2(C)C (stereo partly shown) [Compound 10089] | ≤ 75
21 | C#CCCC(NC(=O)[C@@H]1[C@@H]2[C@H](CN1C(=O)[C@@H](NC(=O)N[C@H](CN(C)S(=O)(=O)N(C)C)C(C)(C)C)C1Cc3ccccc3C1)C2(C)C)C(=O)C(=O)NCC=C (stereo partly shown) [Compound 10090] | ≤ 75
22 | C=CCNC(=O)C(=O)C(CCC)NC(=O)[C@@H]1[C@@H]2[C@H](CN1C(=O)[C@@H](NC(=O)N[C@H](CN(C)S(=O)(=O)N(C)C(=O)OC(C)(C)C)C(C)(C)C)C(C)(C)C)C2(C)C (stereo partly shown) [Compound 10091] | ≤ 75
23 | C#CCCC(NC(=O)[C@@H]1[C@@H]2[C@H](CN1C(=O)[C@@H](NC(=O)N[C@H](CN(C1CC1)S(=O)(=O)N(C)C)C(C)(C)C)C(C)(C)C)C2(C)C)C(=O)C(=O)NCC=C (stereo partly shown) [Compound 10092] | ≤ 75
24 | C=CCNC(=O)C(=O)C(CC1CC1)NC(=O)[C@@H]1[C@@H]2[C@H](CN1C(=O)[C@@H](NC(=O)N[C@H](CN(C)S(=O)(=O)N(C)C1CC1)C(C)(C)C)C(C)(C)C)C2(C)C (stereo partly shown) [Compound 10093] | ≤ 75
25 | C#CCCC(NC(=O)[C@@H]1[C@@H]2[C@H](CN1C(=O)[C@@H](NC(=O)N[C@H](CN(C)S(=O)(=O)N(C)C1CC1)C(C)(C)C)C(C)(C)C)C2(C)C)C(=O)C(=O)NCC=C (stereo partly shown) [Compound 10094] | ≤ 75
26 | C=CCNC(=O)C(=O)C(CCC)NC(=O)[C@@H]1[C@@H]2[C@H](CN1C(=O)[C@@H](NC(=O)N[C@H](CN(C)S(=O)(=O)N(C)C1CC1)C(C)(C)C)C(C)(C)C)C2(C)C (stereo partly shown) [Compound 10095] | ≤ 75
27 | C=CCNC(=O)C(=O)C(CCCC)NC(=O)[C@@H]1[C@@H]2[C@H](CN1C(=O)[C@@H](NC(=O)N[C@H](CN(C)S(=O)(=O)N(C)C1CC1)C(C)(C)C)C(C)(C)C)C2(C)C (stereo partly shown) [Compound 10096] | ≤ 75
28 | CN(C[C@@H](NC(=O)N[C@H](C(=O)N1C[C@H]2[C@@H]([C@H]1C(=O)NC(CC1CCC1)C(=O)C(N)=O)C2(C)C)C(C)(C)C)C(C)(C)C)S(=O)(=O)N1CCCC1 (stereo partly shown) [Compound 10097] | ≤ 75
29 | C#CCCC(NC(=O)[C@@H]1[C@@H]2[C@H](CN1C(=O)[C@@H](NC(=O)N[C@H](CN(C)S(=O)(=O)N1CCCC1)C(C)(C)C)C(C)(C)C)C2(C)C)C(=O)C(=O)NCC=C (stereo partly shown) [Compound 10098] | ≤ 75
30 | C=CCNC(=O)C(=O)C(CCCC)NC(=O)[C@@H]1[C@@H]2[C@H](CN1C(=O)[C@@H](NC(=O)N[C@H](CN(C)S(=O)(=O)N1CCCC1)C(C)(C)C)C(C)(C)C)C2(C)C (stereo partly shown) [Compound 10099] | ≤ 75
31 | C=CCNC(=O)C(=O)C(CCC)NC(=O)[C@@H]1[C@@H]2[C@H](CN1C(=O)[C@@H](NC(=O)N[C@H](CN(C)S(=O)(=O)N(C)C)C(C)(C)C)C(C)(C)C)C2(C)C (stereo partly shown) [Compound 10100] | ≤ 75
32 | C=CCNC(=O)C(=O)C(CCCC)NC(=O)[C@@H]1[C@@H]2[C@H](CN1C(=O)[C@@H](NC(=O)N[C@H](CN(C)S(=O)(=O)N(C)C(=O)OC(C)(C)C)C(C)(C)C)C(C)(C)C)C2(C)C (stereo partly shown) [Compound 10101] | ≤ 75
33 | C=CCNC(=O)C(=O)C(CCC)NC(=O)[C@@H]1[C@@H]2[C@H](CN1C(=O)[C@@H](NC(=O)N[C@H](CN(C)S(=O)(=O)N(C)C(=O)OCc1ccccc1)C(C)(C)C)C1CCCCC1)C2(C)C (stereo partly shown) [Compound 10229] | ≤ 75

Same assay, conditions: Table 2, range

Row | Structure (SMILES) | Ki [nM]
34 | CN(C[C@@H](NC(=O)N[C@H](C(=O)N1C[C@H]2[C@@H]([C@H]1C(=O)NC(CC1CCC1)C(=O)C(N)=O)C2(C)C)C(C)(C)C)C(C)(C)C)S(=O)(=O)C(F)(F)F (stereo partly shown) [Compound 11001] | ≤ 75
35 | C#CCCC(NC(=O)[C@@H]1[C@@H]2[C@H](CN1C(=O)[C@@H](NC(=O)N[C@H](CN(C)S(=O)(=O)c1ccccn1)C(C)(C)C)C(C)(C)C)C2(C)C)C(=O)C(=O)NCC=C (stereo partly shown) [Compound 11002] | ≤ 75
36 | C=CCNC(=O)C(=O)C(CC1CC1)NC(=O)[C@@H]1[C@@H]2[C@H](CN1C(=O)[C@@H](NC(=O)N[C@H](CN(C)S(=O)(=O)c1cccs1)C(C)(C)C)C(C)(C)C)C2(C)C (stereo partly shown) [Compound 11003] | ≤ 75
37 | CN(C[C@@H](NC(=O)N[C@H](C(=O)N1C[C@H]2[C@@H]([C@H]1C(=O)NC(CC1CC1)C(=O)C(N)=O)C2(C)C)C(C)(C)C)C(C)(C)C)S(=O)(=O)C(C)(C)C (stereo partly shown) [Compound 11004] | ≤ 75
38 | CC(C)CC(C)(CN(C)S(=O)(=O)c1ccccc1)NC(=O)N[C@H](C(=O)N1C[C@H]2[C@@H]([C@H]1C(=O)NC(CC1CCC1)C(=O)C(N)=O)C2(C)C)C(C)(C)C (stereo partly shown) [Compound 11005] | 75 to 250
39 | CN(CC1(NC(=O)N[C@H](C(=O)N2C[C@H]3[C@@H]([C@H]2C(=O)NC(CC2CC2)C(=O)C(N)=O)C3(C)C)C(C)(C)C)CCCCC1)S(=O)(=O)c1ccccc1 (stereo partly shown) [Compound 11006] | ≤ 75
40 | CN(CC1(NC(=O)N[C@H](C(=O)N2C[C@H]3[C@@H]([C@H]2C(=O)NC(CC2CCC2)C(=O)C(N)=O)C3(C)C)C(C)(C)C)CCCCC1)S(=O)(=O)c1ccccc1 (stereo partly shown) [Compound 11007] | ≤ 75
41 | CN(CC1(NC(=O)N[C@H](C(=O)N2C[C@H]3[C@@H]([C@H]2C(=O)NC(CC2CC2)C(=O)C(N)=O)C3(C)C)C(C)(C)C)CCCCC1)S(=O)(=O)Cc1ccccc1 (stereo partly shown) [Compound 11008] | ≤ 75
42 | C=CCNC(=O)C(=O)C(CCC(F)(F)F)NC(=O)[C@@H]1[C@@H]2[C@H](CN1C(=O)[C@@H](NC(=O)NC1(Cc3ccccc3)CCCN(S(C)(=O)=O)C1)C(C)(C)C)C2(C)C (stereo partly shown) [Compound 11009] | > 250
43 | CC(C)[C@@H](CN(CC1CC1)S(=O)(=O)c1ccccc1)NC(=O)N[C@H](C(=O)N1C[C@H]2[C@@H]([C@H]1C(=O)NC(CC1CC1)C(=O)C(N)=O)C2(C)C)C(C)(C)C (stereo partly shown) [Compound 11010] | ≤ 75
